Tests used:
[1] = target: T1, D(3) dopamine receptor (Homo sapiens, UniProt P35462); assay: Agonist activity at human dopamine D3 receptor expressed in CHO cells after 90 mins by [35S]-GTPgamma S assay; assay type: cell-based
[2] = target: T1, D(3) dopamine receptor; assay: Antagonist activity at human dopamine D3 receptor expressed in CHO cells after 90 mins by [35S]-GTPgamma S assay; assay type: cell-based

Sequences of proteins named here, by UniProt entry; tags and fusion partners are left off.
UniProt P35462, whole entry: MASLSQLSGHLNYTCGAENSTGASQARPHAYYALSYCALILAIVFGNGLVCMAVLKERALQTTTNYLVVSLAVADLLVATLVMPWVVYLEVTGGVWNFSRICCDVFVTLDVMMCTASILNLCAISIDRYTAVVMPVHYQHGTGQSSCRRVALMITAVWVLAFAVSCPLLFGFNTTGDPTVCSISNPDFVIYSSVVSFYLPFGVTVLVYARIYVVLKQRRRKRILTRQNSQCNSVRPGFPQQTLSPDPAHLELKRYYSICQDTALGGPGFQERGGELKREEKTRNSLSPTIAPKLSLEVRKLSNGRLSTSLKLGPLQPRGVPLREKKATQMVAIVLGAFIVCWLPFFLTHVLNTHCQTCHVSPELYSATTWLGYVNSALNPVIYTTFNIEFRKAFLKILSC

For `Cc1ncoc1-c1nnc(SCCCN2CCOC(c3ccc(C(F)(F)F)cc3)C2)n1C` (racemic), the Ki [1] was > 10000 nM.
`Cc1ncoc1-c1nnc(SCCCN2CCOC(c3ccc(C(F)(F)F)cc3)C2)n1C` (stereo in doubt; 9) gave a Ki [2] of 25.1 nM.
